Results published in ChEMBL document CHEMBL3864121, “Development of ebsulfur analogues as potent antibacterials against methicillin-resistant Staphylococcus aureus” (Bioorg Med Chem, 2016).
≈ marks a conversion by molar mass, not a printed value.

Legend:
[1] = system: Enterobacter cloacae; experiment: Antibacterial activity against Enterobacter cloacae ATCC 13047 measured after overnight incubation by broth double-dilution method; assay type: functional; settings: subsp. cloacae ATCC 13047
Procedure, shortened: (§1)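 MIC by broth double-dilution in liquid Mueller-Hinton medium. Values are reported in µg/mL.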

[2] = system: Enterococcus; experiment: Antibacterial activity against Vancomycin-resistant Enterococcus measured after overnight incubation by broth double-dilution method; assay type: functional; procedure, shortened: as §1
[3] = system: Escherichia coli; experiment: Antibacterial activity against Escherichia coli MC1061 measured after overnight incubation by broth double-dilution method; assay type: functional; procedure, shortened: as §1
[4] = system: Acinetobacter baumannii; experiment: Antibacterial activity against Acinetobacter baumannii ATCC 19606 measured after overnight incubation by broth double-dilution method; assay type: functional
Procedure, shortened: (§2)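 MIC by broth double-dilution in Mueller-Hinton medium. Re-testing at the time-kill inoculum used 1×10^6 CFU/mL.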

[5] = system: Staphylococcus epidermidis; experiment: Antibacterial activity against Staphylococcus epidermidis ATCC 12228 measured after overnight incubation by broth double-dilution method; assay type: functional; procedure, shortened: as §2
[6] = system: Enterococcus faecalis; experiment: Antibacterial activity against Enterococcus faecalis ATCC 29212 measured after overnight incubation by broth double-dilution method; assay type: functional; procedure, shortened: as §2
[7] = system: Enterococcus faecalis; experiment: Antibacterial activity against Enterococcus faecalis ATCC 49533 measured after overnight incubation by broth double-dilution method; assay type: functional; procedure, shortened: as §2
[8] = system: Staphylococcus epidermidis; experiment: Antibiofilm activity against Staphylococcus epidermidis ATCC 35984 assessed as reduction of biofilm at […] measured after 24 hrs by crystal violet staining based method relative to control; assay type: functional, RP62A; set-up: scale not given: the % may be the effect or the level left
[9] = system: Klebsiella pneumoniae; experiment: Antibacterial activity against Klebsiella pneumoniae ATCC 27736 measured after overnight incubation by broth double-dilution method; assay type: functional; procedure, shortened: as §1
[10] = system: Staphylococcus epidermidis; experiment: Antibacterial activity against Staphylococcus epidermidis ATCC 35984 measured after overnight incubation by broth double-dilution method; assay type: functional; settings: RP62A; procedure, shortened: as §2
[11] = system: Salmonella enterica; experiment: Antibacterial activity against Salmonella enterica ATCC 14028 measured after overnight incubation by broth double-dilution method; assay type: functional; procedure, shortened: as §2
[12] = system: Pseudomonas aeruginosa; experiment: Antibacterial activity against Pseudomonas aeruginosa ATCC 27853 measured after overnight incubation by broth double-dilution method; assay type: functional; procedure, shortened: as §2

`O=c1c2ccccc2sn1-c1ccccc1` was tested. Which MIC [1] did it give?
The MIC was 125 µg/mL (≈ 550 µM).

And the MIC [2]?
Its MIC is 1 µg/mL (≈ 4.4 µM).

And the MIC [3]?
Its MIC is 31.3 µg/mL (≈ 138 µM).

And the MIC [4]?
Its MIC is 15.6 µg/mL (≈ 68.6 µM).

What about the MIC [5] of the same compound?
Its MIC is 125 µg/mL (≈ 550 µM).

And the MIC [6]?
The MIC was 31.3 µg/mL (≈ 138 µM).

And the MIC [7]?
Its MIC is 15.6 µg/mL (≈ 68.6 µM).

What about the Activity [8] of the same compound?
Its Activity is 50%.

What about the MIC [9] of the same compound?
Its MIC is 62.5 µg/mL (≈ 275 µM).

What about the MIC [10] of the same compound?
The MIC was 1 µg/mL (≈ 4.4 µM).

What about the MIC [11] of the same compound?
The MIC was 125 µg/mL (≈ 550 µM).

What about the MIC [12] of the same compound?
The MIC was 62.5 µg/mL (≈ 275 µM).
